Results: patent US9422332B2, “Azaheterocycles as BIR2 and/or BIR3 inhibitors” (Hoffmann-La Roche Inc., priority 2012, dated 2016)
Counter-ions that a name gives are not always drawn.

The chains behind the UniProt entries cited, without tags or fusion partners. A line that says so, or that is headed by a name, gives the form on record, which may keep a tag or linker.
UniProt P98170, other isoform, or with tags, fused parts or gaps, stated change not applied: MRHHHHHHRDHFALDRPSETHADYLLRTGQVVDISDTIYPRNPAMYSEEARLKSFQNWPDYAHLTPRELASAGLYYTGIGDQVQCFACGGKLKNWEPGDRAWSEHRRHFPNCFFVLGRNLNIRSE
UniProt P98170, other isoform, or with tags, fused parts or gaps: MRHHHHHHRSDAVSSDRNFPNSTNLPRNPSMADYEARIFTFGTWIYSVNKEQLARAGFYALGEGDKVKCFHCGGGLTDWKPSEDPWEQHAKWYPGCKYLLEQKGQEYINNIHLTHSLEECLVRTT

What was measured:
[1] = biological target: BIR2 domain of XIAP (Homo sapiens (Human), UniProt P98170, C202A/C213G); assay: TR-FRET assay for BIR2 (inhibition of binding of XIAP BIR2 domain to Peptide A); conditions: 6x His-tagged BIR2 domain (aa 124-240 of XIAP), 20 nM Peptide A
Experimental: (§1) TR-FRET Assay for BIR2 and BIR3
(§2) The peptides were labeled with the fluorescent tags FITC or TAMRA and Kd values were determined by fluorescence polarization assay. […] The peptide sequence was derivatized with biotin to provide […]-(ε-biotin)-OH 1:2 TFA as the substrate for the TR-FRET assay.
The XIAP protein sequence was obtained from the SWISS-PROT protein sequence database and the BIR2 and BIR3 domains were derived from that. The sequence of the BIR2 domain used for the TR-FRET assay is
(§3) Time-resolved fluorescence resonance energy transfer (TR-FRET) signals were measured 1 hour later at room temperature. Test compound potency was assessed at 10 serially diluted concentrations. Percentage of inhibition at each concentration was determined to generate an IC50 value for each test compound.

[2] = biological target: BIR3 domain of XIAP (Homo sapiens (Human), UniProt P98170); assay: TR-FRET assay for BIR3 (inhibition of binding of XIAP BIR3 domain to Peptide A); conditions: 6x His-tagged BIR3 domain (aa 241-356 of XIAP), 20 nM Peptide A
Experimental: as §1, §2
The sequence of the BIR3 domain used for the TR-FRET assay is
as §3

Structure (SMILES) | IC50 [1] [nM] | IC50 [2] [nM]
CN[C@@H](C)C(=O)N[C@H](C(=O)N1CCc2cc(F)ccc2[C@H]1C(=O)Nc1c(F)cccc1F)C(C)C [Example 6, 6-Fluoro-2-[(S)-3-methyl-2-((S)-2-methylamino-propionylamino)-butyryl]-1,2,3,4-tetrahydro-isoquinoline-1-carboxylic acid (2,6-difluoro-phenyl)-amide] | 25 | > 54800
CN[C@@H](C)C(=O)N[C@H](C(=O)N1Cc2ccccc2C1C(=O)Nc1ccccc1)C(C)C (stereo partly drawn) [Example 16, 2-((S)-3-methyl-2-((S)-2-(methylamino)propanamido)butanoyl)-N-phenylisoindoline-1-carboxamide hydrochloride] | 233 | > 54800
CN[C@@H](C)C(=O)N[C@H](C(=O)N1CCc2ccccc2[C@H]1C(=O)Nc1c(F)cccc1F)C(C)(C)C [Example 38, (S)-N-(2,6-difluorophenyl)-2-((S)-3,3-dimethyl-2-((S)-2-(methylamino)propanamido)butanoyl)-1,2,3,4-tetrahydroisoquinoline-1-carboxamide hydrochloride] | 62 | > 54800
CC[C@H](C)[C@H](NC(=O)[C@H](C)NC)C(=O)N1CCc2ccccc2[C@H]1C(=O)Nc1c(F)cccc1F [Example 15, (S)-N-(2,6-difluorophenyl)-2-((2S,3S)-3-methyl-2-((S)-2-(methylamino)propanamido)pentanoyl)-1,2,3,4-tetrahydroisoquinoline-1-carboxamide hydrochloride] | 13 | > 54800
CN[C@@H](C)C(=O)N[C@H](C(=O)N1Cc2ccccc2[C@H]1C(=O)Nc1c(F)cccc1F)C1CCOCC1 [Example 12, (S)-N-(2,6-difluorophenyl)-2-((S)-2-((S)-2-(methylamino)propanamido)-2-(tetrahydro-2H-pyran-4-yl)acetyl)isoindoline-1-carboxamide hydrochloride] | 14 | 
CN[C@@H](C)C(=O)N[C@H](C(=O)N1Cc2ccccc2[C@H]1C(=O)Nc1c(C)cccc1F)C(C)C [Example 47, (S)-N-(2-fluoro-6-methylphenyl)-2-((S)-3-methyl-2-((S)-2-(methylamino)propanamido)butanoyl)isoindoline-1-carboxamide hydrochloride] | 19 | > 54800
CN[C@@H](C)C(=O)N[C@H](C(=O)N1Cc2ccccc2[C@H]1C(=O)Nc1c(F)cccc1F)c1ccccc1 [Example 34, (S)-N-(2,6-difluorophenyl)-2-((S)-2-((S)-2-(methylamino)propanamido)-2-phenylacetyl)isoindoline-1-carboxamide hydrochloride] | 32 | 
CN[C@@H](C)C(=O)N[C@H](C(=O)N1CCc2ccccc2[C@H]1C(=O)Nc1c(F)cccc1F)[C@@H](C)OC [Example 39, (S)-N-(2,6-difluorophenyl)-2-((2S,3R)-3-methoxy-2-((S)-2-(methylamino)propanamido)butanoyl)-1,2,3,4-tetrahydroisoquinoline-1-carboxamide hydrochloride] | 93 | > 54800
CN[C@@H](C)C(=O)N[C@H](C(=O)N1CCc2cc(F)ccc2[C@@H]1C(=O)Nc1c(F)cccc1F)C(C)C [Example 43, N-(2,6-difluorophenyl)-6-fluoro-2-((S)-3-methyl-2-((S)-2-(methylamino)propanamido)butanoyl)-1,2,3,4-tetrahydroisoquinoline-1-carboxamide] | 3480 | > 54800
